Permeability data for macrocyclic peptides

Data: CycPeptMPDB; original report Le Roux et al. 2020, doi:10.1021/acs.jmedchem.0c00013.

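Conditions beyond the assay type are not listed; see the original paper. The list need not hold all peptides of the study. Entries at the database's floor value (log10 P of -10) are not listed.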

PAMPA is the parallel artificial membrane permeability assay, which has no cells and reads passive diffusion. Caco-2 values are permeabilities across monolayers of Caco-2 human intestinal cells. Permeability is given as log10 of P in cm/s; higher (less negative) is more permeable. A value with < or ≤ is an upper limit.

{"smiles": "CC(C)C[C@@H]1NC(=O)[C@H](Cc2ccc(O)cc2)NC(=O)[C@H](C)NCCCCCCNC1=O", "PAMPA (log10 cm/s)": "-6.70"}
{"smiles": "CC(C)C[C@@H]1NC(=O)[C@H](C)NC(=O)[C@H](Cc2ccccc2)NCCCCCCCCCCNC1=O", "PAMPA (log10 cm/s)": "-4.50", "Caco-2 (log10 cm/s)": "-4.35"}
{"smiles": "CC(C)C[C@@H]1NC(=O)[C@H](C)NC(=O)[C@H](Cc2ccccc2)NCCNC1=O", "PAMPA (log10 cm/s)": "-5.60", "Caco-2 (log10 cm/s)": "-5.33"}
{"smiles": "O=C1NCCCCCCNCC(=O)N2CCC[C@H]2C(=O)N[C@H]1Cc1ccc(O)cc1", "PAMPA (log10 cm/s)": "< -7.80"}
{"smiles": "CC(C)C[C@@H]1C(=O)N(C)CCCCCCN[C@@H](Cc2ccccc2)C(=O)N[C@@H](C)C(=O)N1C", "PAMPA (log10 cm/s)": "-4.40", "Caco-2 (log10 cm/s)": "-3.57"}
{"smiles": "CC(C)C[C@@H]1NC(=O)[C@@H](Cc2ccc(O)cc2)NC(=O)[C@@H](C)NCCCCCCNC1=O", "PAMPA (log10 cm/s)": "-6.60"}
{"smiles": "CC(C)C[C@@H]1NC(=O)[C@H](C)NC(=O)[C@H](Cc2ccccc2)NCCCCCNC1=O", "PAMPA (log10 cm/s)": "-4.60", "Caco-2 (log10 cm/s)": "-4.71"}
{"smiles": "CC(C)C[C@@H]1NC(=O)[C@H](C)NC(=O)[C@H](Cc2ccccc2)NCCCNC1=O", "PAMPA (log10 cm/s)": "-4.90", "Caco-2 (log10 cm/s)": "-5.11"}
{"smiles": "CC(C)CN1CC(=O)N(C)CCCCCCN[C@@H](Cc2ccccc2)C(=O)N[C@@H](C)C1=O", "PAMPA (log10 cm/s)": "-4.50", "Caco-2 (log10 cm/s)": "-3.58"}
{"smiles": "CC(C)C[C@@H]1NCCCCCCNC(=O)[C@H](C)NC(=O)[C@H](Cc2ccccc2)NC1=O", "PAMPA (log10 cm/s)": "-4.50", "Caco-2 (log10 cm/s)": "-4.77"}
{"smiles": "CC(C)C[C@H]1C(=O)NCCCCCCN[C@@H](Cc2ccccc2)C(=O)N[C@@H](C)C(=O)N1C", "PAMPA (log10 cm/s)": "-4.60", "Caco-2 (log10 cm/s)": "-3.78"}
{"smiles": "CC(C)C[C@@H]1NC(=O)[C@H](Cc2ccccc2)NCCCCCCNC(=O)[C@H](C)NC1=O", "PAMPA (log10 cm/s)": "-4.50", "Caco-2 (log10 cm/s)": "-4.82"}
{"smiles": "CC(C)C[C@@H]1NC(=O)[C@H](C)NCCCCCCNC(=O)[C@H](Cc2ccccc2)NC1=O", "PAMPA (log10 cm/s)": "-4.50", "Caco-2 (log10 cm/s)": "-5.24"}
{"smiles": "CC(C)[C@@H]1NC(=O)[C@@H](CO)NC(=O)CNCCCCCCNC1=O", "PAMPA (log10 cm/s)": "< -7.80"}
{"smiles": "CC(C)CN1CC(=O)NCCCCCCN[C@@H](Cc2ccccc2)C(=O)N[C@@H](C)C1=O", "PAMPA (log10 cm/s)": "-4.30", "Caco-2 (log10 cm/s)": "-3.99"}
{"smiles": "CC(C)C[C@H]1NC(=O)[C@@H](C)NCCCCCCNC(=O)[C@H](CO)NC1=O", "PAMPA (log10 cm/s)": "-5.50"}
{"smiles": "CC(C)C[C@@H]1NC(=O)[C@H](Cc2ccccc2)NC(=O)[C@H](C)NCCCCCCNC1=O", "PAMPA (log10 cm/s)": "-4.20", "Caco-2 (log10 cm/s)": "-5.21"}

A selection of 2 entries from above:

{"smiles": "CC(C)C[C@H]1C(=O)NCCCCCCN[C@@H](Cc2ccccc2)C(=O)N[C@@H](C)C(=O)N1C", "PAMPA (log10 cm/s)": "-4.60", "Caco-2 (log10 cm/s)": "-3.78"}
{"smiles": "CC(C)CN1CC(=O)NCCCCCCN[C@@H](Cc2ccccc2)C(=O)N[C@@H](C)C1=O", "PAMPA (log10 cm/s)": "-4.30", "Caco-2 (log10 cm/s)": "-3.99"}